Assays:
[1] = system: ESCs and ESC-derived neurons; conditions: mouse
[2] = Table S1, three classes; ref per compound in the footnotes of Table S1; cited from earlier work

CC(C)(C)C(=O)C(Oc1ccc(Cl)cc1)n1cncn1 (centres unmarked) [Triadimefon]
Number of non-cytotoxic changes [1]: 2
class based on clinical evidence for neurotoxicity [2]: Possibly (developmental)

Source: publication PMC5225183, “Fingerprinting of neurotoxic compounds using a mouse embryonic stem cell dual luminescence reporter assay” (Archives of Toxicology, 2016)
